IC50 data for one compound are collected here from ChEMBL document CHEMBL4342404, “Anti-cholinesterase hybrids as multi-target-directed ligands against Alzheimer's disease (1998-2018)” (Bioorg Med Chem, 2019).

Sequences of proteins named here, by UniProt entry; tags and fusion partners are left off.
UniProt P06276, whole entry: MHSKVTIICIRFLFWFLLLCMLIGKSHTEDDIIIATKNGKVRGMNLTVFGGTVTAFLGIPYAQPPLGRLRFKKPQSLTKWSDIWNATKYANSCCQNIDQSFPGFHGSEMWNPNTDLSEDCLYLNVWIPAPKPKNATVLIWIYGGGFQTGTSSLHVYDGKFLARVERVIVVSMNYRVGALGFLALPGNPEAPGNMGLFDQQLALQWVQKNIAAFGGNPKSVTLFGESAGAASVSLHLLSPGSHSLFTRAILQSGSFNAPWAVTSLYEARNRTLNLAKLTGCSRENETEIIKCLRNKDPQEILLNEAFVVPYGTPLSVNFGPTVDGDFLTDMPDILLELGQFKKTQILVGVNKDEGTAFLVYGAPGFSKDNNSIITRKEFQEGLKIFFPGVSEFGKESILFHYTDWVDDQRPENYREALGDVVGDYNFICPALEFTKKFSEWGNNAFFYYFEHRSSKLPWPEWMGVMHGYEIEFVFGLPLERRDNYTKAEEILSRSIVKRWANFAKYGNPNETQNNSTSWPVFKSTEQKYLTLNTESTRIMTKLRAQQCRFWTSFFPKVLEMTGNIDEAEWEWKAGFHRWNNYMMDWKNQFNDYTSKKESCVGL

The experiment has as its target Cholinesterase (Homo sapiens, UniProt P06276).

In general, IC50 refers to the point on the concentration scale where inhibition reaches its midpoint. Low readings indicate greater potency, high ones weaker potency. Consider `CCN(C)C(=O)Oc1cccc([C@H](C)N(C)C)c1` [RIVASTIGMINE], for which the IC50 amounted to 9.12 µM.
